Results reported in PubChem BioAssay AID758 (NMMLSC, 2007).
The list shows a part of the results, in another mix than the full data. Activity calls are given as the source filed them.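 The calls were made as follows: active = fluorescent GTP binding to Rab7 beads changed by at least 20 points from the 100% baseline, either direction, mostly lower; inconclusive = compound itself probably fluorescent, or too few beads counted; inactive = the rest.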

System: Rab7 GTPase wild type (dog), Bodipy-FL-GTP binding
Test: modulators of GTP binding to Rab7, primary screen, biochemical, wildtype, multiplex bead flow cytometry (AID 758);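 also: median green fluorescence of bound Bodipy-FL-GTP per Rab7 bead population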
Conditions: GST-Rab7 beads, fluorescent GTP binding, at 10 µM, actives lie on both sides, untreated = 100%, excess cold GTP = 0%

| SMILES | GTP binding activity (percent of control) |
| --- | --- |
| CCOC(=O)N1CCC(Nc2ccc(OC)cc2)CC1 | inactive: 106% |
| O=C(OC1CN2CCC1CC2)C1c2ccccc2Oc2ccccc21 (centres undefined) | inactive: 98% |
| O=C(NCC1(N2CCOCC2)CCCCC1)c1cc2ccccc2o1 | inactive: 96% |
| COc1ccc(C(=O)NCC2(N3CCCCC3)CCCCC2)c(OC)c1OC | inactive: 98% |
| COc1ccc(NC2CCN(CCc3ccccc3)CC2)c(OC)c1 | inactive: 98% |
| COc1ccc(NC2CCN(C(=O)OC(C)(C)C)CC2)cc1 | inactive: 97% |
| CN1CCN(CCOC(=O)C(O)(c2ccccc2)c2ccccc2)CC1 | inactive: 104% |
| O=C(NCC1(N2CCOCC2)CCCCC1)c1cc(=O)[nH]c2ccccc12 | inactive: 102% |
| O=C(NCC1(N2CCCCC2)CCCCC1)c1cccc([N+](=O)[O-])c1 | inactive: 97% |
| N#CC1(Nc2ccccc2)CCN(CCc2ccccc2)CC1 | inactive: 105% |
| COc1ccc(CN(CCCl)CCCl)cc1Cl | inactive: 97% |
| CN(C)c1cccc(C(=O)NCC2(N3CCCCC3)CCCCC2)c1 | inactive: 103% |
| CC(C)c1ccc(NC2CCN(C(=O)OC(C)(C)C)CC2)cc1 | inactive: 97% |
| O=C(OC1CN2CCC1CC2)C1c2ccccc2C=Cc2ccccc21 (centres undefined) | inactive: 104% |
| N/C(=N\O)c1c(N)no[n+]1[O-] | inactive: 93% |
| COc1ccc(C(=O)NCC2(N3CCOCC3)CCCCC2)cc1OC | inactive: 98% |
| c1ccc(CN2CCC(Nc3ccccc3)CC2)cc1 | inactive: 95% |
| N#Cc1ccc(C(=O)NCC2(N3CCCCC3)CCCCC2)cc1 | inactive: 105% |
| CN(C)c1ccc(C(=O)NCC2(N3CCCCC3)CCCCC2)cc1 | inactive: 103% |
| CCN1CCC(Nc2cccc(F)c2)CC1 | inactive: 98% |
| Fc1ccccc1NC1CCN(Cc2ccccc2)CC1 | inactive: 103% |
| COc1cc(OC)cc(C(=O)NCC2(N3CCOCC3)CCCCC2)c1 | inactive: 92% |
| CC(C)(C)OC(=O)N1CCC(Nc2ccccc2)CC1 | inactive: 99% |
| CCOc1ncccc1C(=O)NCC1(N2CCOCC2)CCCCC1 | inactive: 100% |
